Test results published in patent US20090099094A1, “Use of Somatostatin Agonists to Treat Medullary Thyroid Carcinoma” (priority 2007, published 2009).

Chains of the proteins cited; added tags and fusions are not shown. Lines headed by an entry give the natural chain unless they say otherwise; changes in a name come on top.
UniProt P30874: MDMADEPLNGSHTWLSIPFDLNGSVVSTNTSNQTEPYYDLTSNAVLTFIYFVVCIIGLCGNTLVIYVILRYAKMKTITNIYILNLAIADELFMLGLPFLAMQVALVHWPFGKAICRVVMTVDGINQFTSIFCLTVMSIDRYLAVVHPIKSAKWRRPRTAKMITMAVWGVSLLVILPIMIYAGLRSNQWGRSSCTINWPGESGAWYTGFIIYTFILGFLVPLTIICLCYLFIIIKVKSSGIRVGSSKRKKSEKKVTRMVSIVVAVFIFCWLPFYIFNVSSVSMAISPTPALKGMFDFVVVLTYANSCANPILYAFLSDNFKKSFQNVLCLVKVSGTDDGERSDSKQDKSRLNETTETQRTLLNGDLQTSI
UniProt P32745: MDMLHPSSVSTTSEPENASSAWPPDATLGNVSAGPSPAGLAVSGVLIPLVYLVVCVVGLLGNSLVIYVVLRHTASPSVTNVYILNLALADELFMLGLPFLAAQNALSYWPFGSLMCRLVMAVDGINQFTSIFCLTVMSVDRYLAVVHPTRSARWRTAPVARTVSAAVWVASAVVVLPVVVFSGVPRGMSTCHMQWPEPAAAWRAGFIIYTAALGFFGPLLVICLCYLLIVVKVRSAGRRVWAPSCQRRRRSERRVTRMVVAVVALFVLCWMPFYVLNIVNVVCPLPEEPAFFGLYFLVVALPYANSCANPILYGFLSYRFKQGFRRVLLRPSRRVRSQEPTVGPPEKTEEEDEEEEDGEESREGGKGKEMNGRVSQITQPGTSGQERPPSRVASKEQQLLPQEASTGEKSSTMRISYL
UniProt P35346: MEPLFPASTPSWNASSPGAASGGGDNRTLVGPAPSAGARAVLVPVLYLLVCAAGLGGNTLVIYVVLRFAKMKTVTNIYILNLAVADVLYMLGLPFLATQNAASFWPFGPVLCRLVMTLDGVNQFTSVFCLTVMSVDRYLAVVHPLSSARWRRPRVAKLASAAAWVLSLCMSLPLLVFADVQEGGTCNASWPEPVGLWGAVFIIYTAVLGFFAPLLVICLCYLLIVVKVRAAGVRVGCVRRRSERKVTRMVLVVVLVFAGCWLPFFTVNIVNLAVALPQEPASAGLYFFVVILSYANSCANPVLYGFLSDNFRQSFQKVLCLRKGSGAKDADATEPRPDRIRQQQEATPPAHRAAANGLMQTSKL

Legend:
SSTR2 = SSTR2 (Homo sapiens, UniProt P30874); test: SSTR receptor binding affinity (Ki), SSTR2; conditions: read-out: SSTR Specificity Ki SSTR2
Description: What is meant by an SSTR-2 receptor selective agonist is an SSTR-2 receptor agonist which has a higher binding affinity (i.e., lower Ki) for SSTR-2 than for any other somatostatin receptor i.e., SSTR-1, SSTR-3, SSTR-4 or SSTR-5.

SSTR3 = SSTR3 (Homo sapiens, UniProt P32745); test: SSTR receptor binding affinity (Ki), SSTR3; conditions: read-out: SSTR Specificity Ki SSTR3
Description: What is meant by an SSTR-3 receptor selective agonist is an SSTR-3 receptor agonist which has a higher binding affinity (i.e., lower Ki) for SSTR-3 than for any other somatostatin receptor i.e., SSTR-1, SSTR-2, SSTR-4 or SSTR-5.

SSTR5 = SSTR5 (Homo sapiens, UniProt P35346); test: SSTR receptor binding affinity (Ki), SSTR5; conditions: read-out: SSTR Specificity Ki SSTR5

Compound: CC[C@@H]1NC(=O)[C@H](CCCCN)NC(=O)[C@@H](Cc2c[nH]c3ccccc23)NC(=O)[C@H](Cc2ccc(O)cc2)NC(=O)[C@@H](NC(=O)[C@@H](Cc2ccccc2)NS(=O)(=O)CCN2CCN(CCO)CC2)CSSC[C@@H](C(=O)N[C@H](C(N)=O)[C@@H](C)O)NC1=O [4-(2-Hydroxyethyl)-1-piperazine-2-ethanesulfonyl-D-Phe-c[Cys-Tyr-D-Trp-Lys-Abu-Cys]-Thr-NH2]
- Ki (SSTR2): 0.18 nM

Compound: CC[C@@H]1NC(=O)[C@H](CCCCN)NC(=O)[C@@H](Cc2c[nH]c3ccccc23)NC(=O)[C@H](Cc2ccc(O)cc2)NC(=O)[C@@H](NC(=O)[C@@H](Cc2ccccc2)NC(=O)CN2CCN(CCO)CC2)CSSC[C@@H](C(=O)N[C@H](C(N)=O)[C@@H](C)O)NC1=O [4-(2-Hydroxyethyl)-1-piperazinylacetyl-D-Phe-c[Cys-Tyr-D-Trp-Lys-Abu-Cys]-Thr-NH2]
- Ki (SSTR3): 215 nM
- Ki (SSTR5): 10.6 nM
